# Literature values in patent US20100189807A1, “Use of an ozone / oxygen mixture as a primary anticancer therapy via intraperitoneal insufflation” (priority 2009, published 2010).
# Tested on: auricular VX2 tumors
# Conditions: perilesional injection; cited from earlier work
substance,measurement,value
"IL-2: IL-2, perilesional injection, literature comparison",efficiency of regression of auricular VX2 tumors,25.0%
